This note sets out measurements from patent publication US20240239785A1, “SUBSTITUTED 2-(2,6-DIOXOPIPERIDIN-3-YL)-5-(1-PIPERIDIN-4-YL)ISOINDOLINE-1,3-DIONE DERIVATIVES AND USES THEREOF” (Neomorph, Inc., priority 2021, published 2024).

Protein sequences, listed by entry. Tags and fused reporters are not part of them.
UniProt Q96SW2, whole entry: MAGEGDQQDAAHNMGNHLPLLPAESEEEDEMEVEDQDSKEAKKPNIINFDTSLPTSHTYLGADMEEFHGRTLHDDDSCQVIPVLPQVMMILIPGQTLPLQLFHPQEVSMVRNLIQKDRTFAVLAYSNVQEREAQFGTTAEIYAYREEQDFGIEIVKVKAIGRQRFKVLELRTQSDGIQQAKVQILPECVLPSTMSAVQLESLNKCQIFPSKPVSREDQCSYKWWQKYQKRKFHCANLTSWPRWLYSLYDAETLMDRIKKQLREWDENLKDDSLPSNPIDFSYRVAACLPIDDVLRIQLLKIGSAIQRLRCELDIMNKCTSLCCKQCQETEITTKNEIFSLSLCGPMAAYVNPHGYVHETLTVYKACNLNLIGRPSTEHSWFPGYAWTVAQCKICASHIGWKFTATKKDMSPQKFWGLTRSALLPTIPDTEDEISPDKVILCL
UniProt Q9UKS7, whole entry: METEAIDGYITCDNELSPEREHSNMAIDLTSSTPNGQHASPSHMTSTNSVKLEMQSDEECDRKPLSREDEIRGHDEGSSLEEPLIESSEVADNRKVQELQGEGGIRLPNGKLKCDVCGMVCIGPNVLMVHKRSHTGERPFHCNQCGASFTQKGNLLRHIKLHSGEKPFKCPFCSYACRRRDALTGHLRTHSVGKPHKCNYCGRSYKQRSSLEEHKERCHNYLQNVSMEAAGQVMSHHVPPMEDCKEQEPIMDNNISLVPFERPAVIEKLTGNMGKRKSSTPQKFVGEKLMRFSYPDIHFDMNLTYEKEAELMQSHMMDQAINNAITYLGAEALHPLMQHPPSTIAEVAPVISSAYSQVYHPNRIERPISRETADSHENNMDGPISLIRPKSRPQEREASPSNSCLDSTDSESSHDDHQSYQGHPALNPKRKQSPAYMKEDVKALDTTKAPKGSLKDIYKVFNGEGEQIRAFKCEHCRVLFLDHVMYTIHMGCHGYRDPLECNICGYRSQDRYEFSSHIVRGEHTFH
UniProt Q16531, whole entry partner: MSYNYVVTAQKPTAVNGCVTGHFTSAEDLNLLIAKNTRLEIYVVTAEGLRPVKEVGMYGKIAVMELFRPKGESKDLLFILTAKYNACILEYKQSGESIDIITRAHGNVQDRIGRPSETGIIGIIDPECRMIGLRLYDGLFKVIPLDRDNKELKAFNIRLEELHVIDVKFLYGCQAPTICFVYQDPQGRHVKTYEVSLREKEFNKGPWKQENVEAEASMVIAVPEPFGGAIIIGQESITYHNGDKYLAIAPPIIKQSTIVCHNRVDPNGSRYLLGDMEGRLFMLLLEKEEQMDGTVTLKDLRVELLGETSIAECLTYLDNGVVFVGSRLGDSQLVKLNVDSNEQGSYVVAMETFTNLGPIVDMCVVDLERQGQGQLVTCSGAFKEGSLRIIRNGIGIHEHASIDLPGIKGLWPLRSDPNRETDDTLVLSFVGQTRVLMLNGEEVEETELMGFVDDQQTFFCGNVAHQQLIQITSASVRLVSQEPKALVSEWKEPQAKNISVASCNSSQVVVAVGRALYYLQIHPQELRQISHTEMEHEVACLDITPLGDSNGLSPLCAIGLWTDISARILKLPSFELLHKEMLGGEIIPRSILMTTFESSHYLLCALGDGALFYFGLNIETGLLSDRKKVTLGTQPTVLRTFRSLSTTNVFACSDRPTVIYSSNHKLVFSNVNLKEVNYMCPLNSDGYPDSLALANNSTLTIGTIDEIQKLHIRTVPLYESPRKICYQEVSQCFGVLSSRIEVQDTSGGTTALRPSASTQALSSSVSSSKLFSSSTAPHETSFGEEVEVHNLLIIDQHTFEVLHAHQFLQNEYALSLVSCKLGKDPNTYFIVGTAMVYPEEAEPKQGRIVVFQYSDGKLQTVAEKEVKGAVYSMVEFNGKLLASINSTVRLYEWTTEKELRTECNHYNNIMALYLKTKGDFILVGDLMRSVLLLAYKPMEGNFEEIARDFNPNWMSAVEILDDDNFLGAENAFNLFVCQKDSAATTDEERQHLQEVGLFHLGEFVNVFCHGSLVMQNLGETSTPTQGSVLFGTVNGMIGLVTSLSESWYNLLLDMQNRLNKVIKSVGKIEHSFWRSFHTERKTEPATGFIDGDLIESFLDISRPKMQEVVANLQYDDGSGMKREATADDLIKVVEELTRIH

The assay has as its target IKZF2 (Homo sapiens, UniProt Q96SW2+Q9UKS7). Put plainly: MOLT4 IKZF2 HiBit assay. To be noted: MOLT4 IKZF2 HiBit cells, tested form: formate. On the procedure:
MOLT4 IKZF2 HiBit Assay Protocol:
This protocol used MOLT4 cells that were engineered using CRISPR/Cas9-mediated genomic insertion of HiBit, tagged to the N terminus of the IKZF2 coding sequence. Day 1. A 10-point dose response was created starting from 30 μM down to InM using a Tecan D300e. Next was added 8,000 cells/well of the MOLT4 IKZF2 HiBit cells to the compound plate. The compounds plate was incubated for 6 hours. Day 2. Nano-Glo HiBit Lytic Buffer/Nano-Glo HiBit Lytic substrate/LgBit Protein mix was added to each well and the compound plate was incubated for 15 minutes. Finally, luminescence signal was read using a BMG Labtech PHERAstar FSX. Data was normalized to DMSO and graphed using GraphPad Prism to determine the concentration points at which 50% of HiBiT-Helios degradation was achieved by each compound. The extent of degradation (range of luminescence) from the highest to lowest concentration points was calculated to determine Dmax.
(In general: The HiBiT peptide binds its large partner to form an active luciferase.)

As for `CCn1cc(CN2CCC(O)(c3ccc4c(c3)C(=O)N(C3CCC(=O)NC3=O)C4=O)CC2)cn1` (centres unmarked), the “% reduction of IKZF2 @ 30 μM (6 hr)” value (30 μM, 6 hr (Dmax)) worked out at 64%. Further, the DC50 (read-out: IKZF2 DC50, 6 hours incubation, 10-point dose response from 30 μM) was 136 nM.
